The data set in a line: Water Solubility Assay (onset of precipitation in buffer). The settings on record: concentration at which the compound remains in solution; 35 mM HEPES, 1% DMSO, 25 °C, 18 h; head says pH7.4.

A value given as a limit tells only on which side of the number the result lay.

In the case of “[(2R)-2-[(5R,6R)-3,5-dimethyl-2-oxo-1,3-oxazinan-6-yl]-2-(methylamino)acetic acid]^1 cyclosporin A [Compound 21]”, the “Aqueous Solubility pH7.4” value is reported as over 100 μM.

The values are drawn from patent publication US9914755B2 (dated 2018).
